The test system of test [1] is BCR-ABL M244V Ba/F3 cells. The experiment in a line: cells. The settings on record: Mus musculus, BaF3.
Test [2] deals with BCR-ABL F359V Ba/F3 cells. The experiment in a line: cells. The settings on record: Mus musculus, BaF3.
Test [3] has as its system BCR-ABL V299L Ba/F3 cells. The experiment in a line: cells. The settings on record: Mus musculus, BaF3.
The test system of test [4] is BCR-ABL G303R Ba/F3 cells. Kind of test: cells. Conditions: Mus musculus, BaF3.
Test [5] has as its system ABL kinase error-prone mutant library. The experiment in a line: ABL error-prone library screening by FACS in presence of inhibitor. Type of test: cell-based, human. The settings on record: inhibitor-treated cultures (25 μM). On the technique in general: Flow cytometry measures light scatter and fluorescence of single cells or particles in a stream.
In test [6] the test system is BCR-ABL Q252H Ba/F3 cells. Kind of test: cells. The settings on record: Mus musculus, BaF3.
Test [7] deals with BCR-ABL H396R Ba/F3 cells. Kind of test: cells. The settings on record: Mus musculus, BaF3.
Test [8] deals with BCR-ABL M351T Ba/F3 cells. Kind of test: cells. The settings on record: Mus musculus, BaF3.
For test [9], the system named is BCR-ABL T315I Ba/F3 cells. The experiment in a line: cells. Conditions: Mus musculus, BaF3.
The test system of test [10] is BCR-ABL L384M Ba/F3 cells. Kind of test: Ba/F3 BCR-ABL cell viability (CellTiter Glo), IC50. The settings on record: Mus musculus, BaF3. On the technique in general: Cellular ATP, detected with luciferase, serves as a proxy for viable cell number.

With `Cc1nc(Nc2ncc(C(=O)Nc3c(C)cccc3Cl)s2)cc(N2CCN(CCO)CC2)n1` [Dasatinib], the half-inhibitory concentration (IC50) in test [1] was 1.3 to 3.6 nM; in test [2], 2.2 to 2.7 nM; in [3], 15.8 to 44.1 nM; in test [4] it was 41.9 nM; in [6], 3.4 to 5.6 nM; in test [7], 1.3 to 3 nM. Besides, the IC50 in [8] is 1.1 to 1.6 nM; in [9] it was ≥ 137 nM; in test [10], 4 nM. Besides, the figures for the “fraction of PE-positive cells” value in [5] (post-sort 6 sample) and in test [5] (unsorted pool) were 87.7% and 1.8%, respectively.

For orientation: IC50 means the concentration that inhibits the measured activity by half.

The record behind these values is patent US11236380B2, “Methods for predicting kinase inhibitor resistance” (Research Development Foundation, priority 2017, dated 2022).
